By UniProt entry, the sequences of proteins in these tests, tags left out.
UniProt P10635, whole entry: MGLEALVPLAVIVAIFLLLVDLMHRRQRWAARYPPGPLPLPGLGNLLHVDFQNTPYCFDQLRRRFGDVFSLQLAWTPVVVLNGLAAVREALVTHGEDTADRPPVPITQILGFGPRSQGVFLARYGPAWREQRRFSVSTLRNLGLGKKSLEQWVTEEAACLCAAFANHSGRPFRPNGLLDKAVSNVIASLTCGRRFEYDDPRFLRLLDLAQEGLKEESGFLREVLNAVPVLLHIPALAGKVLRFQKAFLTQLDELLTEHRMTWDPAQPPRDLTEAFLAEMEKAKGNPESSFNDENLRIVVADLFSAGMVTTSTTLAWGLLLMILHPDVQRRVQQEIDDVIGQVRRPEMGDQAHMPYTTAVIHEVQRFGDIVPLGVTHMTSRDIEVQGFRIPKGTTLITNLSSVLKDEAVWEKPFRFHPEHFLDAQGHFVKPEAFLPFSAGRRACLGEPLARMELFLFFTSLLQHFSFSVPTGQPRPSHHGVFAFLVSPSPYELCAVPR

According to patent publication US8778970B2, “Benzyl piperidine compound” (Dainippon Sumitomo Pharma Co., Ltd, priority 2009, dated 2014):

Assays:
CYP2D6 [1] = target: T1, CYP2D6 (Homo sapiens (Human), UniProt P10635); assay: Screening test on contribution ratio of CYP2D6 in human liver microsomal metabolism; assay type: in vitro ADME; conditions: 1 mg/mL human liver microsomes, 1 μM test substance, with/without 4 μM quinidine; values marked *) are reference values due to relative stability
Protocol: Screening Test on Contribution Ratio of CYP2D6 in Human Liver Microsomal Metabolism
0.2 mL of a 50 mM potassium phosphate buffer (pH 7.4) containing 3 mM (final concentration) NADPH (manufactured by Oriental Yeast Co., Ltd.), 1 mg/mL human liver microsomes (manufactured by Xenotech, LLC) and 1 μM test substance was warmed in a water bath at 37° C. for metabolic reaction. After 15- or 30-minute reaction, the reaction was terminated by the addition of a 3-fold volume of methanol with respect to the reaction solution and subsequent stirring. This reaction solution was centrifuged to precipitate proteins. Then, the supernatant was collected and subjected to LC-MS/MS analysis. The results were analyzed as follows:
The test substance was quantified, and time-dependent change in its residual amount was logarithmically plotted. The rate of metabolism was calculated from the slope.
The ratio of the rate of metabolism in the presence of quinidine added at 4 μM (final concentration) to the reaction solution to that in the absence of quinidine was used as the contribution ratio of enzymes other than CYP2D6. […] Specifically, it was calculated according to the formula: Contribution ratio (%)={1−(Rate of metabolism [in the presence of quinidine]/Rate of metabolism [in the absence of quinidine])}×100 The smaller numeric value of the contribution ratio of CYP2D6 means the small contribution of CYP2D6.

CYP2D6 [2] = target: T1, CYP2D6; assay: CYP2D6 inhibition screening test (bufuralol 1'-hydroxylation, pooled human liver microsomes); assay type: in vitro ADME; conditions: substrate bufuralol, 37° C. 10 min
Protocol: CYP2D6 Inhibition Screening Test
Bufuralol hydrochloride was purchased from Toronto Research Chemicals Inc., and pooled human liver microsomes were purchased from Xenotech, LLC.
Bufuralol hydrochloride was dissolved in DMSO at a concentration of 1.0 mM and then diluted 20-fold with distilled water.
• 1. A 10 mM solution of a test drug in DMSO was serially diluted with DMSO at four 5-fold dilutions to prepare 10, 2, 0.4 and 0.08 mM DMSO solutions. • 2. Each test drug solution of step 1 or DMSO was diluted 160-fold with the human liver microsome solution and dispensed at a concentration of 80 μL/well to a microplate. • 3. 10 μL of the substrate solution and 10 μL of the β-NADPH solution were added to each well of step 2, and the mixture was incubated at 37° C. for 10 min. • 4. The reaction was terminated by the addition of 300 μL of methanol. • 5. The reaction mixture was filtered and analyzed by LC-MS/MS. 3-4 Quantification and Calculation
The amount of 1′-hydroxybufuralol formed was determined by LC-MS/MS, and this value was used as the metabolic activity value of CYP2D6 in each well. The residual activity of each sample-supplemented group was determined by comparison with the activity in the well containing DMSO used as a test drug. IC50 values in CYP2D6 inhibition were determined from the test drug concentrations. […]

(+)-6-(2-{4-[4-Bromo-3-(2-methoxyethoxy)benzyl]piperidin-1-yl}ethyl)-3,4-dihydro-2H-chromen-4-ol benzenesulfonate (salt) [Compound 5-12]
CYP2D6 contribution ratio (CYP2D6 [1]): 0% | pIC50 (CYP2D6 [2]): 4.37

6-(2-{4-[4-Bromo-3-(2-methoxyethoxy)benzyl]piperidin-1-yl}ethyl)-3,4-dihydro-2H-chromen-4-ol benzenesulfonate (salt) [Compound 5-1]
CYP2D6 contribution ratio (CYP2D6 [1]): 39*) % | pIC50 (CYP2D6 [2]): 4.47

pIC50: −log10 of the molar value.
